# Measurements from PubChem BioAssay (EPA / NIEHS).
# The list shows a part of the results, in another mix than the full data. Calls of active or inactive are those of the source. Rule for the calls: active = hit-call score of the fitted dose curve at least 0.9, where 1 is the maximum; inactive = score below 0.9.
# Test: ATG_TAL_CIS: Attagene CIS-FACTORIAL HepG2 Assay for human TAL Basal Promoter (AID 2282966)
# Conditions: HepG2 Attagene cis-factorial TAL promoter reporter; actives raise or lower the signal
# Method: ATG_CIS is a cell-based, multiplexed-readout assay that uses HepG2, a human liver cell line, with measurements taken at 24 hours after chemical dosing in a 24-well plate.ATG_TAL_CIS is one of 52 assay component(s) measured or calculated from the ATG_CIS assay. It is designed to make measurements of mRNA induction, a form of inducible reporter, as detected with fluorescence intensity signals by Reverse transcription polymerase chain reaction (RT-PCR) and Capillary electrophoresis technology.Data from the assay component ATG_TAL_CIS was analyzed into 1 assay endpoint. This assay endpoint, ATG_TAL_CIS, was analyzed with bidirectional fitting relative to DMSO as the negative control and baseline of activity. Using a type of inducible reporter, measures of mRNA for gain or loss-of-signal activity can be used to understand the background control at the transcription factor-level as they relate to the gene . Furthermore, this assay endpoint can be referred to as a secondary readout, because this assay has produced multiple assay endpoints where this one serves a background control function. To generalize the intended target to other relatable targets, this assay endpoint is annotated to the background measurement intended target family, where the subfamily is internal marker.
# Human liver HepG2 cells are transiently transfected with multiple reporter transcription units (MRTUs) in 6-well plates using FuGene 6 reagent (Roche; 3 ml FuGene/1 mg DNA). The MRTU constructs are regulated by a cis-regulating element (promoter). […] A major difference between the CIS and TRANS system is that in CIS activities of endogenous TFs are measured, whereas the TRANS assay evaluates changes in activities of exogenous, chimeric NR-Gal4 proteins. […] At the end of 24 hour incubation, total RNA was isolated using TriZol reagent (Invitrogen). The isolated RNA is then reverse-transcribed using oligo(dT) primer and Mo-MLV reverse transcriptase (Invitrogen) with DNAse I (Ambion) treatment for 30 min. The one-tenth of the produced cDNA was amplified by PCR using Taq DNA polymerase (Invitrogen) and two reporter sequence-specific primers. The PCR products were fluorescently labeled by primer extension with 6-arboxyfluorescein (6-FAM) 5'-labeled reporter sequence-specific primer (2 min at 95 C, 20 s at 68 C and 10 min at 72 C) and these products were digested with 5U of HpaI (New England Biolabs) for 2h at 37 C. The fragments were purified using Qiaquick PCR columns (Qiagen), analyzed on an ABI 3130xL genetic analyzer (Applied Biosystems) with peak positions identified by using a set of X-rhodamine (ROX)-labeled MapMarker1000 molecular weight standards (BioVentures). The raw capillary electrophoresis data was processed using Attagraph software (Attagene).
row,SMILES,outcome
1,O=[P+](Oc1ccccc1)Oc1ccccc1,inactive
2,O=[N+]([O-])c1ccc([N+](=O)[O-])cc1,inactive
3,Cc1cc([N+](=O)[O-])cc([N+](=O)[O-])c1O,inactive
4,O=[As]c1ccccc1 (configuration not stated),inactive
5,CCCCO[P+](=O)OCCCC,inactive
6,O=[p+]1oc2ccccc2c2ccccc21 (configuration not stated),inactive
7,N#CSc1ccc([N+](=O)[O-])cc1[N+](=O)[O-],inactive
8,CCCCC(CC)CO[P+](=O)OCC(CC)CCCC (configuration not stated),inactive
9,CCCCOP(OCCCC)OCCCC,inactive
10,CN(C(=O)Cc1cccc2occc12)[C@H]1CC[C@@]2(CCCO2)C[C@@H]1N1CCCC1,inactive
11,O=C(Cl)Oc1ccccc1,inactive
12,CC(C)CCCCCCCOP(OCCCCCCCC(C)C)Oc1ccccc1,inactive
13,O=C(Cl)OCCOC(=O)Cl,inactive
14,ClP(Cl)c1ccccc1,inactive
15,O=C1C2CC=CCC2C(=O)N1SC(Cl)(Cl)C(Cl)Cl (configuration not stated),inactive
16,O=P(Cl)(Oc1ccccc1)Oc1ccccc1,inactive
17,CC(C)OP(=S)(OC(C)C)SCCNS(=O)(=O)c1ccccc1,inactive
